Data as given in ChEMBL document CHEMBL3046763 (J Pestic Sci, 2000).

Key:
Spodoptera litura = experiment: Insecticidal activity against Spodoptera litura assessed as mortality at 500 ppm by filter paper method
Delphacodes = experiment: Insecticidal activity against Delphacodes striatellus assessed as mortality at 500 ppm by test tube method

CCN(C(=O)OCC(C)C)P(C)(=S)Oc1ccc([N+](=O)[O-])c(C)c1 (configuration not stated)
mortality (Spodoptera litura): 100%
mortality (Delphacodes): 13%
